Measured values taken from PubChem BioAssay (NCATS).
This is a selection; strong and weak results do not stand in their true shares. Inconclusive results are not listed. Some salts or complexes appear as unconnected parts, following the source record. Activity calls are given as the source filed them. Unless noted, calls follow the shape of the dose curve; as a rule, active = well fitted curve in the direction sought with a large enough effect; inconclusive = small, poorly fitted or top-dose-only effect, or another doubt; inactive = no such curve, though single readings can be large; an effect the other way counts as inactive or inconclusive.

Chains of the proteins cited; added tags and fusions are not shown.
UniProt Q99828, whole entry: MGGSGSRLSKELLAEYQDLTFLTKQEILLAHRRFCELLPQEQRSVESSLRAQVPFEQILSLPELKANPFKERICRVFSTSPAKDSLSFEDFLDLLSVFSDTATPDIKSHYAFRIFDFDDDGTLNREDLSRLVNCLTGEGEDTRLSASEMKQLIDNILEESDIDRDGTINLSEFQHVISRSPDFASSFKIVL
UniProt O15297, whole entry: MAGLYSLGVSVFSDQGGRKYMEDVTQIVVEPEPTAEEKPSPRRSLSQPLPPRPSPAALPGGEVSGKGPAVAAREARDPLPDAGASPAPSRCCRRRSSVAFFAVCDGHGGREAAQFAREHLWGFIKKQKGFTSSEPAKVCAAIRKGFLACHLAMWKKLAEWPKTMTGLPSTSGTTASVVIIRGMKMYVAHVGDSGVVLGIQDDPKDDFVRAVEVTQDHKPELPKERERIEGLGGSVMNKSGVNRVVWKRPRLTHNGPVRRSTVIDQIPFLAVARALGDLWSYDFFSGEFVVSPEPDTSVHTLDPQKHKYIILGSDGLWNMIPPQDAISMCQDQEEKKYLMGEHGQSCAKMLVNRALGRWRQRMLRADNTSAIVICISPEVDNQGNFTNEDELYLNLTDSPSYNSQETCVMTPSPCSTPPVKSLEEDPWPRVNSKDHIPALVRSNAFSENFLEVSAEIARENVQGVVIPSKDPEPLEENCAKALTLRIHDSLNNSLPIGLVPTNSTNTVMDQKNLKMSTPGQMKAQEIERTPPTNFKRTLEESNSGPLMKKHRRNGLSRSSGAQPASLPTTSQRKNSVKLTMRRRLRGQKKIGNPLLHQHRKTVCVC
UniProt P11712, whole entry: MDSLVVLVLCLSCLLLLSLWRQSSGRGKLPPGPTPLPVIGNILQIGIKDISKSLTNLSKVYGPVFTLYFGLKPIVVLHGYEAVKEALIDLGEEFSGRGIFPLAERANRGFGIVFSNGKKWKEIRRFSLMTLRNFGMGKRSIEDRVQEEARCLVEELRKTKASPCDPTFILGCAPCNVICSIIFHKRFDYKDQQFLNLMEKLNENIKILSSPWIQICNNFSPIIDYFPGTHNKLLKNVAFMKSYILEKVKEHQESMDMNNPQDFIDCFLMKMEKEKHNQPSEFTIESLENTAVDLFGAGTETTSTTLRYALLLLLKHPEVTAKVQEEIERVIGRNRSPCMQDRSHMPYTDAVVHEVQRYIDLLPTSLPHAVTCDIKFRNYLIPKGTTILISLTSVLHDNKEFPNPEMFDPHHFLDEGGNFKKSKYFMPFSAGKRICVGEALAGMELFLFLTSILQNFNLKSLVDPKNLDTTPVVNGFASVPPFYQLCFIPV

Legend:
[1] = target: Calcium and integrin-binding protein 1 (Homo sapiens) (UniProt Q99828); test: Primary qHTS for Identification of Calcium Integrin Binding Protein 1 (CIB1) Competitor (AID 1508620); conditions: CIB1-GST / FITC-alphaIIb peptide fluorescence polarization; at 114 µM (top of the series) unless noted;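 also: GST tagged CIB1 binding a fluorescein labelled alphaIIb integrin peptide tracer; top concentration of the series differs between compounds; % is scaled to controls: 0 for no effect and ±100 for the full control effect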
How it was run: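 Fluorescence polarization competition: CIB1-GST (1 uM final) preincubated with compound 15 min at room temperature, then FITC-labeled alphaIIb peptide (100 nM final) added for another 15 min. Polarization read at Ex 480/Em 540.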

[2] = Primary qHTS for inhibitors of nuclear receptor binding SET domain protein 2 (NSD2) in an isogenic RCH-ACV NSD2 p.E1099K mutant (9B) (AID 1645876); conditions: RCH-ACV NSD2 E1099K (9B) viability, CellTiter-Glo, 72 h; at 44.9 µM (top of the series) unless noted; also: % is scaled to controls: 0 for no effect and ±100 for the full control effect; nearly all actives have a fitted effect of over 70% in size
[3] = Primary qHTS for inhibitors of nuclear receptor binding SET domain protein 2 (NSD2) in an RCH-ACV wild type WT cells (2C) (AID 1645877); conditions: RCH-ACV (leukaemia line) NSD2 WT (2C) viability, CellTiter-Glo, 72 h; at 44.9 µM (top of the series) unless noted; also: % is scaled to controls: 0 for no effect and ±100 for the full control effect; nearly all actives have a fitted effect of over 70% in size
From the text: Assay Provider: Jonathan D. Licht, MD
University of Florida College of Medicine, Gainesville, FL
Mutations in epigenetic regulators are common in relapsed pediatric acute lymphoblastic leukemia (ALL). Here, we uncovered the mechanism underlying the relapse of ALL driven by an activating mutation of the NSD2 histone methyltransferase (p.E1099K). […] Correction of this mutation restored glucocorticoid sensitivity. The transcriptional response to glucocorticoids was blocked in NSD2 mutant cells due to depressed glucocorticoid receptor (GR) levels and the failure of glucocorticoids to autoactivate GR expression. […] Pre-treatment of NSD2 p.E1099K cell lines and PDX samples with PRC2 inhibitors reversed glucocorticoid resistance in vitro and in vivo.
High-throughput drug screening of isogenic RCH-ACV cell lines was performed at the National Center for Advancing Translational Science (NCATS), National Institutes of Health as previously described (1). Briefly, isogenic RCH-ACV NSD2 p.E1099K mutant (9B) and WT cells (2C) were plated at 500 cells/well in a 1536-well plate with a 72-hour incubation with compounds prior to addition of CellTiter-Glo to assess cell viability. NCATS libraries screened include: NPC, MIPE 5.0, Kinase and NPACT. To determine compound activity in the qHTS assay, the concentration-response data for each sample was plotted and modeled by a four-parameter logistic fit yielding IC50 and efficacy (maximal response) values. The area under the curve (AUC) of the dose-response curve ensures both efficacy (magnitude of cell killing) and potency (concentration that elicits cell killing) are accounted for in the analysis of activity.
1. Tobie D Lee, Olivia W Lee, Kyle R Brimacombe, Lu Chen, Rajarshi Guha, Sabrina Lusvarghi, Bethilehem G Tebase, Carleen Klumpp-Thomas, Robert W Robey, Suresh V Ambudkar, Min Shen, Michael M Gottesman, Matthew D Hall. A High-Throughput Screen of a Library of Therapeutics Identifies Cytotoxic Substrates of P-glycoprotein. Mol Pharmacol. 2019, Nov;96(5):629-640.

[4] = qHTS of pediatric cancer cell lines to identify multiple opportunities for drug repurposing: Primary screen for Rh30 cells (AID 1347107); conditions: Rh30 rhabdomyosarcoma viability, CellTiter-Glo luminescence, 48 h; at 46 µM (top of the series) unless noted; also: % is scaled to controls: 0 for no effect and ±100 for the full control effect; nearly all actives have a fitted effect of over 75% in size
How it was run: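 Cells (500-1,000/well) in growth media were settled 5 h at 37 degrees C, then given compounds for 48 h. Viability was read as CellTiter-Glo luminescence. Primary runs used MIPE at 11 points (0.78 nM-46 µM) and NPC at 8 points (0.59 nM-46 µM); follow-ups used 11 points.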

[5] = qHTS of pediatric cancer cell lines to identify multiple opportunities for drug repurposing: Primary screen for Rh41 cells (AID 1347108); conditions: Rh41 rhabdomyosarcoma viability, CellTiter-Glo luminescence, 48 h; at 92.7 µM (top of the series) unless noted;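 also: luminescence drop marks cytotoxic hits; nearly all actives have a fitted effect of over 70% in size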
How it was run: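 Viability was measured as metabolically active cells after 48 hours of treatment, read by CellTiter-Glo luminescence. Compounds were tested at multiple final concentrations, giving concentration-response curves.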

[6] = qHTS to identify inhibitors of the type 1 interferon - major histocompatibility complex class I in skeletal muscle: primary screen against the NCATS Pharmaceutical Collection (AID 1347407); conditions: human skeletal muscle cells, IFN-b-induced MHC-I HiBiT luminescence, 24 h; at 45.9 µM (top of the series) unless noted;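 also: luminescence of HiBiT knocked into endogenous HLA-B as interferon-induced MHC class I level; % is scaled to controls: 0 for no effect and ±100 for the full control effect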
How it was run: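 A qHTS format is used: 8-point, 1:5 compound series with 46 uM top final concentration, applied alongside 4 ng/ml IFN-beta to HLA-B*08:01-HiBiT knock-in myoblasts. Luminescence is measured after 24 h treatment.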

[7] = target: Protein phosphatase 1D (Homo sapiens) (UniProt O15297); test: RapidFire Mass Spectrometry qHTS Assay for Modulators of WT P53-Induced Phosphatase 1 (WIP1) (AID 1347424); conditions: WIP1 dephosphorylation of phosphopeptide, RapidFire MS; at 63 µM (top of the series) unless noted;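 also: amount of dephosphorylated VEPPL-S-QETFS peptide product formed by WIP1; plate controls were DMSO wells for no effect and GSK830371 inhibitor control at 10 µM for full effect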
How it was run: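 Mass-spectrometric measurement of dephosphorylated peptide after a 5 min room-temperature reaction of 10 nM WIP1 with 2 uM phosphopeptide, following 1 h compound preincubation in 30 mM MgCl2 buffer.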

[8] = target: Protein phosphatase 1D (Homo sapiens) (UniProt O15297); test: Rhodamine-PBP qHTS Assay for Modulators of WT P53-Induced Phosphatase 1 (WIP1) (AID 1347425); conditions: recombinant WIP1, Rhodamine-PBP phosphate fluorescence, real-time; at 57.5 µM (top of the series) unless noted; also: % of control where 0% means no effect
How it was run: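 WIP1 (5 nM final) was preincubated with compound for 1 hour at room temperature. It then dephosphorylated 10 uM VEPPL-pS-QETFS peptide in Tris-HCl pH 7.5 with 30 mM MgCl2. Released Pi was detected by 10 uM Rh-PBP fluorescence (ex 525/em 598 nm) read at 1-min intervals for 11 min, as delta f1 - f0.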

[9] = Primary qHTS for small molecule stabilizers of the endoplasmic reticulum resident proteome: Secreted ER Calcium Modulated Protein (SERCaMP) assay (AID 1508630); conditions: SH-SY5Y GLuc-SERCaMP (Gaussia luciferase released on ER calcium loss) secretion, thapsigargin, luminescence; at 38.4 µM (top of the series); also: % is scaled to controls: 0 for no effect and ±100 for the full control effect
How it was run: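 The SH-SY5Y reporter protocol was run at 3 concentrations up to 38.3 uM (primary) or 11 concentrations (follow-up): 16 h compound, 100 nM thapsigargin for 4 h, then extracellular luciferase luminescence.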

[10] = target: Cytochrome P450 2C9 (Homo sapiens) (UniProt P11712); test: Cytochrome P450 family 2 subfamily C member 9 (CYP2C9) small molecule antagonists: luciferase qHTS assay (AID 1645842; active = well fitted curve in the direction sought with a large enough effect in the repeat runs; an effect the other way counts as inactive or inconclusive; also: % is scaled to controls: 0 for no effect and ±100 for the full control effect; nearly all actives have a fitted effect of over 55% in size); conditions: P450-Glo CYP2C9 enzyme assay, luciferin luminescence; at 57.4 µM (top of the series) unless noted
How it was run: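 P450-Glo CYP2C9 system: proluciferin substrate with enzyme in mix containing 0.4% BSA, 10 min at room temperature, then NADPH regeneration solution added and incubated 1 h at 37C. Detection reagent stopped reaction; luminescence read after 20 min as RLU.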

C/C1=C2N=C(/C=C3N=C(/C(C)=C4\N=C(C(CC(N)=O)C4(C)CCC(=O)NCC(C)OP(=O)([O-])OC4C(CO)OC(n5cnc6cc(C)c(C)cc65)C4O)C4(C)N=C1C(CCC(N)=O)C4(C)CC(N)=O)C(CCC(N)=O)C\3(C)C)C(CCC(N)=O)C/2(C)CC(N)=O.[C-]#N.[Co] (configuration not stated)
inactive: activity change, negative = inhibition [1] 4.31% [at 57.7 µM] | activity change, negative = viability loss [2] -20.3% [at 17.3 µM] | activity change, negative = cell killing [3] -17.6% [at 17.3 µM]

Cc1cccc([N+](=O)[O-])c1[N+](=O)[O-]
inactive: activity change, negative = cytotoxic [4] 23% [at 92.7 µM] | activity change, negative = cytotoxic [5] 29.3% | activity change, negative = inhibition [6] -14.1% [at 92.2 µM] | activity change, negative = inhibition [7] -12.4% [at 90.1 µM] | activity change, negative = inhibition [8] 4.48% [at 82.2 µM] | activity change, negative = inhibition [1] -3.01% [at 228 µM] | activity change, negative = inhibition [9] -14.1% | activity change, negative = inhibition [10] 28.3% [at 115 µM]

CC1=C2[N-][C@@](C)([C@@H]3N=C(C(C)=C4N=C(C=C5N=C1[C@@](C)(CC(N)=O)[C@H]5CCC(N)=O)C(C)(C)[C@H]4CCC(N)=O)[C@](C)(CCC(=O)NC[C@@H](C)OP(=O)([O-])O[C@H]1[C@@H](O)[C@@H](n4cnc5cc(C)c(C)cc54)O[C@H]1CO)[C@H]3CC(N)=O)[C@@](C)(CC(N)=O)[C@@H]2CCC(N)=O.[C-]#N.[Co+3]
inactive: activity change, negative = inhibition [1] 2.94% [at 30.2 µM]
